For one test, the target named is N3-(GPO)7GG. The experiment in a line: circular dichroism spectroscopy; free CLP peptides, 0.35 mM in HPLC grade water (pH 6.5 at 4°C), 0.2 cm cuvette; wavelength scans at 4 and 80°C and melting scans; monomers to triple helix.
For a further test, the target named is N3-(GPO)6GG. Described as above.

With N3-(GPO)7GG (peptide), the stoichiometry N (as a rule, the number of molecules, sites or subunits per partner or assembly) with N3-(GPO)7GG was 3.

For the substance N3-(GPO)6GG (peptide), in the test with N3-(GPO)6GG, the stoichiometry N worked out at 3.

The values above are taken from publication PMC6971430, “Manipulation of the dually thermoresponsive behavior of peptide‐based vesicles through modification of collagen‐like peptide domains” (Bioengineering & Translational Medicine, 2019).
